These are literature values, as cited in US8555875B2, “Inhalation devices and related methods for administration of sedative hypnotic compounds” (Map Pharmaceuticals, Inc., priority 2008, dated 2013).

For the data set the following is noted: in vivo.

Take `Cc1ccc(-c2nc3ccc(C)cn3c2CC(=O)N(C)C)cc1` [Zolpidem]: the “Half Life” value was 2 h.
